This test has as its target human Ghrelin receptor (GSHR) (Homo sapiens, UniProt Q92847). The test is described as follows: Gq bioSens-All control assay. The following applies: raw signal.

Amino acid sequences for entries named in this document (tags omitted).
UniProt Q92847, whole entry: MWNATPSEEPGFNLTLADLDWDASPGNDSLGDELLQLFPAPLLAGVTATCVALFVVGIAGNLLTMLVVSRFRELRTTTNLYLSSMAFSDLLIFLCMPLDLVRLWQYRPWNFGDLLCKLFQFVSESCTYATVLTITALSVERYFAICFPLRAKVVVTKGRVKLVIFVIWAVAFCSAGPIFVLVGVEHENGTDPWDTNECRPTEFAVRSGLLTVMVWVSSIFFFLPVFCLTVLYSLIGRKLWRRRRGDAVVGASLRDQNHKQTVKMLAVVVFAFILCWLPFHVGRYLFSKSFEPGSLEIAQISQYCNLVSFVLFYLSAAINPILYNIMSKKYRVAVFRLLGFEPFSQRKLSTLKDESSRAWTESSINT

With Ghrelin, the Ghrelin control response by setting is: (Log[Ghrelin] (M) -4.22186) 1761.95; (Log[Ghrelin] (M) -4.88264) 1706.31; (Log[Ghrelin] (M) -5.54073) 1913.18; (Log[Ghrelin] (M) -6.19385) 1787.26; (Log[Ghrelin] (M) -6.86013) 1793.03; (Log[Ghrelin] (M) -7.52288) 1659.54. Also, the Ghrelin control response (Log[Ghrelin] (M) -8.79589) turned out to be 1503.17, the Ghrelin control response (Log[Ghrelin] (M) -9.60206) turned out to be 1023.31, the Ghrelin control response (Log[Ghrelin] (M) -10.3979) came out at 815.27 and the Ghrelin control response (Log[Ghrelin] (M) -11.1871) stood at 750.82.

The record behind these values is publication PMC11882969 (Nature Communications, 2025).
